Data on four substances can be found in patent US9328142B2, “Lipopeptide inhibitors of RAS oncoproteins” (The United States of America, as represented by The …, priority 2011, dated 2016).

Where two headings read alike, the source gives them in different places. Bounds are passed on as bounds.

For series [1], the target named is recombinant truncated GDP-loaded K-Ras (1-166) (Homo sapiens, UniProt P01116).
For series [2], the system named is H358 human lung cancer cells with mutated K-Ras. The experiment in a line: H358 tumor growth in nude mice. The series is classed as in vivo. To be noted: 10 mg/kg s.c. every second day for 20 days. On the procedure:
2×10^6 H358 human lung cancer cells with mutated K-Ras were implanted subcutaneously (s.c.) in nude mice. When tumors reached measurable size, 10 mg/kg kR-4A-8 or control (DMSO in buffer) was injected s.c. near the tumor every second day for 20 days.

One may read the Kd as a measure of binding affinity in units of concentration. Regarding Ac-C(Fluo)ESGPGLNLNSLNKK(ε-Pal) [HR-6], in series [1] (DPC micelles), the Kd is above 100 µM.
Turning to Ac-C(Fluo)KKKKKSKTKK(ε-Pal) [kR-4B-14], the Kd turned out to be 1.3 ± 0.1 µM in series [1] (DMPC/DHPC bicelles) and 10.8 ± 1.6 µM in series [1] (DPC micelles).
As for “Ac-C(Fluo)KTPGLNVKIKKK(ε-Pal) [kR-4A-11]”, the Kd in series [1] (DPC micelles) is 11.8 ± 1.3 µM.
Consider Ac-GLNVKIKKK-e-Pal [kR-4A-8], for which the “toxicity during treatment or necropsy” value in series [2] is on record as “No toxicity was detected”.
